Results: PubChem BioAssay AID2517 (National Center for Advancing Translational Sciences (NCATS), 2010)
The list shows a part of the results, in another mix than the full data. Some tests of the compounds listed are not included; inactive here does not mean inactive elsewhere. Results filed as inconclusive are left out. The source made the active and inactive calls. Calls come from the whole dose curve; as a rule, active = well fitted inhibition curve with a large enough effect; inconclusive = small, poorly fitted or top-dose-only effect; inactive = no such curve, though single readings can be large or run the other way.

Chains of the proteins cited; added tags and fusions are not shown.
UniProt P27695, whole entry: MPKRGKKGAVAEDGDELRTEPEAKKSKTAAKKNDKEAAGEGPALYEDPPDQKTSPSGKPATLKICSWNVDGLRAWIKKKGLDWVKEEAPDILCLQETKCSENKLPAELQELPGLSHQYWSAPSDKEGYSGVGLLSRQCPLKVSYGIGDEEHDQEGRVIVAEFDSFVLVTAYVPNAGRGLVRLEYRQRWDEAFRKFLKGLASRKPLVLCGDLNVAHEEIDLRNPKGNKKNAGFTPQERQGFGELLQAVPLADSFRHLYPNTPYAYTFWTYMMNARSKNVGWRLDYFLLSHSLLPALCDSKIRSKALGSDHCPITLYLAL

Molecular target: DNA repair nuclease/redox regulator APEX1 (Homo sapiens) (UniProt P27695)
Experiment: qHTS Assay for Inhibitors of the Human Apurinic/apyrimidinic Endonuclease 1 (APE1);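 note: plate controls were vehicle for no effect and reference inhibitor for full effect; nearly all actives have a fitted effect of over 55% in size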
Settings: recombinant APE1, TAMRA/BHQ-2 abasic DNA cleavage fluorescence; at 65.8 µM (top of the series)

SMILES | activity change, negative = inhibition
O=C(NCC1(N2CCCCC2)CCCCC1)c1cc([N+](=O)[O-])ccc1Cl | inactive: 3.46%
CN1[C@@H]2CC[C@H]1CC(OC(=O)C(O)(c1ccccc1)c1ccccc1)C2 (some centres undefined) | inactive: 47.3%
CC(C)N1C(=O)CC2(CCN(CCOC(=O)C(O)(c3ccccc3)c3ccccc3)CC2)C1=O | inactive: 2.66%
COc1cc(SC)ccc1C(=O)NCC1(N(C)C)CCCCC1 | inactive: 7.27%
CCN(CC)CC(C)C(C)OC(=O)C(O)(c1ccccc1)c1ccccc1 (centres undefined) | inactive: 23.9%
Cc1ccc(C(=O)NCC2(N3CCCCC3)CCCCC2)cc1 | inactive: 13.9%
CN(C)C1CCCC1OC(=O)C(O)(c1ccccc1)c1ccccc1 (centres undefined) | inactive: 0.685%
CN(C)c1ccc(C(=O)NCC2(N(C)C)CCCCC2)cc1 | inactive: 8.38%
Cc1ccccc1C(=O)NCC1(N2CCCCC2)CCCCC1 | inactive: 4.19%
O=C(NCC1(N2CCCCC2)CCCCC1)c1cc(F)c(F)cc1Cl | inactive: 4.02%
C=CCN1CCN(CCOC(=O)C(O)(c2ccccc2)c2ccccc2)CC1 | inactive: 0.546%
O=C(NCC1(N2CCCCC2)CCCCC1)c1cccc(Br)c1 | inactive: -0.567%
Cc1cc(C(=O)NCC2(N3CCCCC3)CCCCC2)ccc1[N+](=O)[O-] | inactive: 57.3%
CCN1CCCC(OC(=O)C2(O)c3ccccc3C=Cc3ccccc32)C1 (centres undefined) | inactive: -0.0195%
COc1ccc(C(=O)NCC2(N(C)C)CCCCC2)cc1 | inactive: -3.38%
CN(C)C1(CNC(=O)c2ccc(Br)cc2)CCCCC1 | inactive: 63%
COc1cc(C(=O)NCC2(N(C)C)CCCCC2)c([N+](=O)[O-])cc1OC | inactive: 4.65%
COc1ccc(Cl)cc1C(=O)NCC1(N(C)C)CCCCC1 | inactive: -2.35%
COc1cccc(C(=O)NCC2(N3CCCCC3)CCCCC2)c1 | inactive: 0.617%
O=C(NCC1(N2CCCCC2)CCCCC1)c1cccc(Cl)c1 | inactive: -9.31%
O=C(OC1CN2CCC1CC2)C(CO)(c1ccccc1)c1ccccc1 (centres undefined) | inactive: -1.2%
COc1ccc(Br)c(C(=O)NCC2(N3CCCCC3)CCCCC2)c1 | inactive: 6.15%
CN(C)c1cccc(C(=O)NCC2(N(C)C)CCCCC2)c1 | inactive: -6.52%
CC(C)Oc1ccc(C(=O)NCC2(N(C)C)CCCCC2)cc1 | inactive: 4.87%
